{
  "source": "paper PMC12920379",
  "about": "(European Journal of Nuclear Medicine and Molecular Imaging, 2025)",
  "key": {"T47D xenografts": {"tested_on": "T47D xenografts", "details": "T47D-mice", "experimental": "Male athymic Balb/C nude mice (age: 6 weeks, weight: 16–20 g) were implanted with prostate PC3 cells (3 × 10^6/100 µL PBS) into their right shoulder. Female athymic Balb/C nude mice (age: 6 weeks, weight: 16–20 g) were implanted with breast T47D cells (12 × 10^6 in 100 µL of PBS: Matrigel, 1:1) into their right shoulder. For the development of the breast tumor models, mice were also implanted with home-made silicon-based hormone pellets (1 mg estrogen/pellet) one week before the implantation of the breast cancer cells. The animals were used for biodistribution and SPECT/CT imaging studies, once tumors reached 250–300 mm³.\nSelected organs were dissected and weighed, and the radioactivity in the tissue samples was counted in a γ-counter. Biodistribution data are given as per cent of injected activity per gram of tissue (% I.A./g) and expressed as mean values ± SD (n = 3–4).\nBlood samples were collected at multiple time points (1–240 min p.i.) and measured using a γ-counter. Blood half-lives were determined with GraphPad Prism using a Two-Phase Decay Model, while tumor, pancreas, and kidney half-lives were calculated from biodistribution data using a One-Phase Decay Model (supplementary data).\nThe areas under the time-activity curves (AUC) in the tumor, blood, pancreas and kidneys were calculated from the non-corrected biodistribution data using GraphPad Prism."}, "[1]": {"experiment": "In vivo plasma protein binding in healthy mice", "details": "5 min p.i.", "experimental": "Blood was immediately transferred to pre-chilled heparinized tubes and centrifuged (5 min, 1700 g, 4 °C) for plasma isolation. The isolated plasma was then transferred into a 2 mL Eppendorf and a double volume of a 1:1 (v/v) ACN:MeOH solution was added to induce the precipitation of the plasma proteins. The proteins were separated by centrifugation (10 min, 9660 g, 4 °C). After careful separation of the two phases (precipitated proteins and supernatant), the respective activities were measured in a γ-counter to determine the percentage of the radiotracer bound to the plasma proteins."}},
  "data": [
    {"substance": "[^47Sc]Sc-LF1: scandium-47 labeled statine-based GRPR antagonist LF1 (AAZTA^5-Pip-D-Phe-Gln-Trp-Ala-Val-Gly-His-Sta-Leu-NH2) (FQWAVGH; 47Sc-AAZTA5-Pip; Sta-Leu-NH2 C-terminus; printed: Phe-Gln-Trp-Ala-Val-Gly-His-)", "values": [
      {"measurement": "Kidneys uptake", "setting": "T47D xenografts; 4 h p.i.", "value": "2.1 ± 0.3", "unit": "% I.A./g"},
      {"measurement": "Effective half-life in tumor", "setting": "T47D xenografts; one-phase decay model", "value": 3.2, "unit": "h"},
      {"measurement": "Plasma protein binding", "setting": "[1]", "value": 3.2, "unit": "%"}
    ]}
  ]
}
